Assay results: PubChem BioAssay AID1346985 (Tox21, 2019)
This is a selection; strong and weak results do not stand in their true shares. Some tests of the compounds listed are not included; inactive here does not mean inactive elsewhere. Records with an inconclusive call do not appear. Active and inactive are the calls of the source. Calls follow the shape of the dose curve; as a rule, active = well fitted activation curve with a large enough effect in the repeat runs; inconclusive = weak or mixed curves; inactive = flat fitted curve, though single readings scatter.

target: Nuclear receptor subfamily 1 group I member 2 (Homo sapiens) (UniProt O75469); test: Human pregnane X receptor (PXR) activation by small molecules, qHTS assay; conditions: DPX-2 HepG2 CYP3A4-luciferase, 24 h; also: nearly all actives have a fitted effect of over 40% in size
Description: National Center for Advancing Translational Sciences [NCATS]
NIH Chemical Genomics Center [NCGC]
U.S. Environmental Protection Agency [EPA]
National Institutes of Environmental Health Sciences [NIEHS]
National Toxicology Program [NTP]
The Pregnane X receptor (PXR), a ligand activated nuclear receptor plays a critical role in the regulation of genes involved in drug metabolism and transporters. Activation of PXR may be involved in the unwanted adverse drug-drug interactions. […] Therefore, identification of compounds with the potential for PXR activation can be of importance in improving the efficacy of drugs with less toxicity and avoiding drug-drug interactions.
DPX-2 (Puracyp, Inc.) cell lines, used for screening against human PXR activation has HepG2 cells co-transfected with a PXR response element and a luciferase construct containing CYP3A4 promoter. Increase in luciferase activity can be used to identify the compounds that activate the PXR pathway.
DPX-2 cells were dispensed at 2,000 cells per well in 5uL of assay medium into white, solid-bottom 1536-well plates using a Multidrop Combi dispenser (Thermo Scientific). […] Then 5ul One-Glo assay reagent (Promega) was added to each plate by a Flying Reagent Dispenser (FRD, Aurora Discovery) and following 30 min incubation at room temperature, luciferase activity was quantified on a ViewLux plate reader (Perkin Elmer).
Potency is read from the fitted curve at half-maximal effect.

| SMILES | Potency |
| --- | --- |
| CN1CCCC(OC(=O)C(O)(c2ccccc2)c2ccccc2)C1 (stereo unspecified) | active: 15.8 µM |
